Source: patent US20050042716A1, “Allergen inactivating method, allergen inactivating filter, air treating apparatus, virus inactivating agent, virus inactivating method, virus inactivating filter, air conditoning unit and air conditioner” (priority 2003, published 2005)

Protein sequences, listed by entry. Tags and fused reporters are not part of them. Residues count along the entry.
UniProt P43212, 46-433: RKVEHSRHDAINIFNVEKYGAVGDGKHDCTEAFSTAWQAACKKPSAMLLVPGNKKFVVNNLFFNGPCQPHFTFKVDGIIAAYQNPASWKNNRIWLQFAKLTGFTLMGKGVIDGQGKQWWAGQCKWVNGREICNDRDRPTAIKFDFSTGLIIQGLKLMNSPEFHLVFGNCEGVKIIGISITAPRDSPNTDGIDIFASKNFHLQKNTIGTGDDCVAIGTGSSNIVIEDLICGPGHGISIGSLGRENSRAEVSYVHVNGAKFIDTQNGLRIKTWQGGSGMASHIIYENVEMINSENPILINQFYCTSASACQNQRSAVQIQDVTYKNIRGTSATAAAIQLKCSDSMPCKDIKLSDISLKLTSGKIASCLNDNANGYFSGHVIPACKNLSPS

How the values were obtained:
cedar extract = experiment: Electrophoresis of treated cedar extract (protein staining); type: biochemical; conditions: 10 μL 5 N sodium hydroxide per 10 μL cedar preparation, 40° C., 10 minutes
cedar antigen Cryj-1 = cedar antigen Cryj-1 (Cryptomeria japonica, UniProt P18632); experiment: Electrophoresis of treated cedar antigen Cryj-1; type: biochemical; conditions: 10 μL 5 N sodium hydroxide per 10 μL Cj-1 solution, 40° C., 10 minutes
Experimental: (§1) Cedar antigens Cryj-1 (abbreviated as Cj-1 hereinafter) and Cryj-2 (abbreviated as Cj-2 hereinafter) were manufactured by Hayashibara Biochemical laboratories, Inc., and was used in a concentration of 100 μg/mL.
NuPage™ LDS sample buffer, NuPage™ sample reducing agent, and NuPage™ sample antioxidant, each manufactured by Invitrogen Co, were appropriately added according to the prescription of the manufacturer to prepare electrophoresis sample 7.
The electrophoresis samples 6 and 7 prepared by the methods in (1) and (2), respectively, were analyzed by electrophoresis. NuPage™ MOPS buffer kit for Bis-tris gel was used as an electrophoresis buffer solution, and 15 μL each of samples 6 and 7 prepared above were added in each lane. The protein was stained after electrophoresis using simply Blue™ SafeStain manufactured by Invitrogen Co. The gel was decolorized according to the prescription of the manufacturer.
Added in a 1.5 mL volume disposable tube were 10 μL of the Cj-1 solution and 10 μL of 5 N HCL solution, followed by incubating at 60° C. for 60 minutes. […]
The electrophoresis samples 12 and 13 prepared by the methods in (1) and (2), respectively, were analyzed by electrophoresis. […]
The electrophoresis samples 12 and 17 prepared by the methods in (1) and (2), respectively, were analyzed by electrophoresis. […]

cedar antigen Cryj-2 = cedar antigen Cryj-2 (Cryptomeria japonica, UniProt P43212); experiment: Electrophoresis of treated cedar antigen Cryj-2; type: biochemical; conditions: 10 μL 5 N sodium hydroxide per 10 μL Cj-2 solution, 40° C., 10 minutes
Experimental: as §1
(§2) Added in a 1.5 mL volume disposable tube were 22.5 μL of the Cj-2 solution and 2 μL of the pfu splution, and the solution was heated at 80° C. for 20 minutes, followed by adding 0.5 μL of the PMSF solution (final concentration of PMSF was 4 mM). NuPage™ LDS sample buffer, NuPage™ sample reducing agent, and NuPage™ sample antioxidant, each manufactured by Invitrogen Co, were appropriately added according to the prescription of the manufacturer to prepare electrophoresis sample 9.
The electrophoresis samples 8 and 9 prepared by the methods in (1) and (2), respectively, were analyzed by electrophoresis. NuPage™ MOPS buffer kit for Bis-tris gel was used as an electrophoresis buffer solution, and 15 μL each of samples 8 and 9 prepared above were added in each lane. […]
The electrophoresis samples 14 and 15 prepared by the methods in (1) and (2), respectively, were analyzed by electrophoresis. […]
The electrophoresis samples 14 and 18 prepared by the methods in (1) and (2), respectively, were analyzed by electrophoresis. […]

Cj-1 allergen = Cj-1 allergen (Cryptomeria japonica, UniProt P18632); experiment: Electrophoresis and Western blotting with Cj-1 antibody; type: biochemical, cedar; conditions: 5 N sodium hydroxide, 40° C., 10 minutes
Experimental: as §2, with “cedar preparation” for “Cj-2 solution”, “solution,” for “splution,”, “4.” for “9.”
Added in a 1.5 mL volume disposable tube were 27.0 μL of the cedar preparation and 3 μL (0.2 g/mL) of edible purified papain (manufactured by Nagase Chemtex Co.; abbreviated as papain hereinafter), and the solution was heated at 40° C. for 15 minutes, followed by adding 3 μL of an inhibitor cocktail solution. […]
The electrophoresis samples 1, 4 and 5 prepared by the methods in (1) to (3), respectively, were analyzed by electrophoresis. […]
The electrophoresis samples 6 and 7 prepared by the methods in (1) and (2), respectively, were analyzed by electrophoresis. […]
The electrophoresis samples 10, 11 and 16 prepared by the methods in (1), (2) and (3), respectively, were analyzed by electrophoresis.

SMILES: [Na+].[OH-] [alkali, sodium hydroxide]
- denaturation of cedar proteins (bands) (cedar extract): most of the protein derived from the cedar was denatured
- denaturation of Cj-1 protein (bands) (cedar antigen Cryj-1): most of the cedar antigen Cj-1 protein was denatured
- denaturation of Cj-2 protein (bands) (cedar antigen Cryj-2): most of the cedar antigen Cj-2 protein was denatured
- denaturation of Cj-1 protein (Western band) (Cj-1 allergen; Cj-1 solution): most of the cedar antigen Cj-1 protein was denatured
- denaturation of Cj-1 protein (Western band) (Cj-1 allergen; cedar extract): most of the cedar antigen Cj-1 protein was denatured
